# According to ChEMBL document CHEMBL5131393 (J Med Chem, 2021):
# Biological target: Human immunodeficiency virus type 1 reverse transcriptase (Human immunodeficiency virus 1) (UniProt Q72547)
# Assay: Potency index, ratio of test compound IC50 to NBD-14189 IC50 for inhibition of recombinant HIV-1 reverse transcriptase incubated for 2 hrs by colorimetric assay
row,Compound,Ratio IC50
1,NCc1cc(-c2ccc3c(c2)OCO3)[nH]c1C(=O)NC(CO)c1nc(S)cs1 (centres undefined),26
2,Cc1sc(C(CO)NC(=O)c2[nH]c(-c3ccc4c(c3)OCO4)cc2CN)nc1S (centres undefined),20
3,NC[C@H](NC(=O)c1ccc(-c2ccc(C(F)(F)F)cn2)[nH]1)c1nc(CO)cs1,2
4,NC[C@@H](NC(=O)c1ccc(-c2ccc(Cl)c(F)c2)[nH]1)c1ncc(CO)s1,9
